# Data as given in US9630961B2, “Arginine methyltransferase inhibitors and uses thereof” (Epizyme, Inc., priority 2013, dated 2017).
# The chains behind the UniProt entries cited, without tags or fusion partners.
# UniProt Q9NR22, whole entry: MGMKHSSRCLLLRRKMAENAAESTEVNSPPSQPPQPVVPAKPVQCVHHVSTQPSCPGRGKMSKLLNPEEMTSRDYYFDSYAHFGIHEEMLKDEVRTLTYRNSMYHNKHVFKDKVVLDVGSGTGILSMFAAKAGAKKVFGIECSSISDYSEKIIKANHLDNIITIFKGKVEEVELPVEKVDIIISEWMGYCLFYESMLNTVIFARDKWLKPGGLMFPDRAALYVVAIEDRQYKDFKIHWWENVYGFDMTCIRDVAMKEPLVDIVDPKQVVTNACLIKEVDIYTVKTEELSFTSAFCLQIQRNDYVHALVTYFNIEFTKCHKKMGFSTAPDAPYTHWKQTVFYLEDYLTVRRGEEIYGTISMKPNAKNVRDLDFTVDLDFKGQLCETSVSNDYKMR
# Target: PRMT8 (Homo sapiens, UniProt Q9NR22)
# Assay: PRMT8 Biochemical Assay (3H-SAM Flashplate, peptide substrate)
# Settings: read-out: Biochemical IC50 PRMT8; 30 min preincubation, room temperature
# From the text: S-adenosylmethionine (SAM), S-adenosylhomocysteine (SAH), bicine, Tween20, dimethylsulfoxide (DMSO), bovine skin gelatin (BSG), isopropyl-β-D-thiogalactopyranoside (IPTG), and Tris(2-carboxyethyl)phosphine hydrochloride solution (TCEP) were purchased from Sigma-Aldrich at the highest level of purity possible. ^3H-SAM was purchase from American Radiolabeled Chemicals with a specific activity of 80 Ci/mmol. 384-well streptavidin Flashplates were purchased from PerkinElmer.
# Peptide representative of human histone H4 residues 31-45 was synthesized with an N-terminal linker-affinity tag motif and a C-terminal amide cap by 21st Century Biochemicals. The peptide was purified by high-performance liquid chromatography (HPLC) to greater than 95% purity and confirmed by liquid chromatography mass spectrometry (LC-MS). The sequence was Biot-Ahx-KPAIRRLARRGGVKR-amide (SEQ ID NO.:8).
# Full-length human PRMT8 (NM_019854.4) isoform 1 transcript clone was amplified from an HEK 293 cDNA library and subcloned into pGEX-4T-1 (GE Life Sciences). The resulting construct encodes an N-terminal GST tag and a thrombin cleavage sequence ([…] […] […] […]) (SEQ ID NO.:9) fused directly to Met 1 of PRMT8.
# E. coli (BL21(DE3) Gold, Stratagene) made competent by the CaCl2 method were transformed with the PRMT8 construct and ampicillin selection. […]
compound,measurement,value
CNCCN(C)Cc1c[nH]nc1-c1csc2ccccc12,IC50,101 to 1000 nM
CNCCN(C)Cc1c[nH]nc1-c1cncnc1,IC50,3010 to 10000 nM
